Results: PMC3189208 (PLoS ONE, 2011)

Sequences of proteins named here, by UniProt entry; tags and fusion partners are left off.
UniProt P35372, whole entry: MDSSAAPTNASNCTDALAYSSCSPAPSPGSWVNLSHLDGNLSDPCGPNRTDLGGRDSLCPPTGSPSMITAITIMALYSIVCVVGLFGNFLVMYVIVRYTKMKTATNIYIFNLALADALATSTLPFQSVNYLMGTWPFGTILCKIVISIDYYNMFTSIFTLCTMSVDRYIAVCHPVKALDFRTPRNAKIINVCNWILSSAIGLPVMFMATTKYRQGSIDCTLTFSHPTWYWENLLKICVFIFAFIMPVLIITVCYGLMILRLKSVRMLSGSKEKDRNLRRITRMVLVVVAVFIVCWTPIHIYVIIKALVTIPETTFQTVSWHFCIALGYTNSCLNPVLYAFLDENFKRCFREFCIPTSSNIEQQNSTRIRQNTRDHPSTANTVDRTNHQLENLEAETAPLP

What was measured:
[1] = molecular target: T1, human mu opioid receptor (MOR1) in HEK-MOR cells (Homo sapiens, UniProt P35372)
[2] = molecular target: T1, human mu opioid receptor (MOR1) in HEK-MOR cells; type: cell-based; set-up: FLAG; expressed in transfected cells
[3] = molecular target: T1, human mu opioid receptor (MOR1) in HEK-MOR cells; type: cell-based; set-up: FLAG; expressed in transfected cells; remark: listed apart in the source
[4] = molecular target: T1, human mu opioid receptor (MOR1) in HEK-MOR cells; type: cell-based; set-up: FLAG; expressed in transfected cells; remark: listed apart in the source
[5] = molecular target: T1, human mu opioid receptor (MOR1) in HEK-MOR cells; type: cell-based; set-up: FLAG; expressed in transfected cells; remark: listed apart in the source

Compound | subcluster in heat map (super cluster 1 antagonists, 2 agonists) [1] | bias between DMR response and whole cell cAMP response [3] | other results
C=CCN1CC[C@]23CCCC[C@H]2[C@H]1Cc1ccc(O)cc13 [levallorphan] | subcluster 1.1 | biased towards cAMP | pharmacology at the MOR concluded from DMR profiling [1]: partial agonists for the MOR; ligand-induced DMR after DAMGO pretreatment [2]: full N-DMR response
O=C(Cc1ccc(Cl)c(Cl)c1)N1CCCCC1CN1CCCC1 (stereo not drawn) [BRL-52537] | subcluster 2.2 | biased towards cAMP | –
COc1ccc2c3c1O[C@H]1[C@@H](O)C=C[C@H]4[C@@H](C2)NCC[C@@]341 [(-)-norcodeine] | subcluster 2.2 | biased towards cAMP | –
C=CC[N+]1(C)CC[C@]23c4c5ccc(O)c4O[C@H]2C(=O)CC[C@@]3(O)[C@H]1C5 (stereo partly drawn) [naloxone methionone] | subcluster 1.2 | – | –
COC(=O)[C@@H]1C[C@H](OC(C)=O)C(=O)[C@H]2[C@@]1(C)CC[C@H]1C(=O)O[C@H](c3ccoc3)C[C@]21C [salvinorin A] | subcluster 1.3 | – | pharmacology at the MOR concluded from DMR profiling [1]: partial agonist activity; DMR produced by ligand in HEK-MOR cells [4]: noticeable P-DMR signal; CTOP-induced DMR after ligand pretreatment [2]: N-DMR response
Oc1ccc2c3c1O[C@H]1c4[nH]c5ccccc5c4C[C@@]4(O)[C@@H](C2)N(CC2CC2)CC[C@]314 [naltrindole] | subcluster 1.2 | – | ligand-induced DMR after DAMGO pretreatment [2]: full N-DMR response
Oc1ccc2c3c1O[C@H]1c4[nH]c5c(c4C[C@@]4(O)[C@@H](C2)N(CC2CC2)CC[C@]314)C[C@@]1(O)[C@H]2Cc3ccc(O)c4c3[C@@]1(CCN2CC1CC1)[C@H]5O4 [nor-binaltorphine] | subcluster 1.3 | – | –
COC(=O)/C=C/C(=O)N[C@@H]1CC[C@@]2(O)[C@H]3Cc4ccc(O)c5c4[C@@]2(CCN3CC2CC2)[C@H]1O5 [β-funaltrexamine] | subcluster 1.1 | – | maximum DMR response compared with DAMGO [5]: smaller maximum response than DAMGO; EC50 ([5]; read-out: EC50 (DMR, monophasic dose response)): 0.1 ± 0.02 nM; ligand-induced DMR after DAMGO pretreatment [2]: full N-DMR response
C[C@@H](NC(=O)[C@@H](N)Cc1ccc(O)cc1)C(=O)NCC(=O)N(C)[C@@H](Cc1ccccc1)C(=O)NCCO [DAMGO] | subcluster 2.1 | – | –
nociceptin 1-13: ORL1 agonist | subcluster 2.3 | biased towards DMR | –
CN(C(=O)Cc1ccc(Cl)c(Cl)c1)[C@H](CN1CCCC1)c1cccc(N=C=S)c1 [DIPPA, 2-(3,4-Dichlorophenyl)-N-methyl-N-[(1S)-1-(3-isothiocyanatophenyl)-2-(1-pyrrolidinyl)ethyl]acetamide] | subcluster 2.2 | – | –
DSLET | subcluster 2.1 | – | pharmacology at the MOR concluded from DMR profiling [1]: full agonist for the MOR
COc1cccc(C2(O)CCCCC2CN(C)C)c1 (stereo not drawn) [tramadol] | subcluster 2.3 | biased towards DMR | –
C=CCN1CCC2(C)c3cc(O)ccc3CC1C2C (stereo not drawn) [SKF10047] | subcluster 1.1 | biased towards cAMP | –
Oc1ccc2c3c1O[C@H]1c4c(c5ccccc5n4Cc4ccccc4)C[C@@]4(O)[C@@H](C2)N(CC2CC2)CC[C@]314 [N-benzylnaltrindole] | subcluster 1.3 | – | –
O=C1/C(=C/c2ccccc2)C[C@@]2(O)[C@H]3Cc4ccc(O)c5c4[C@@]2(CCN3CC2CC2)[C@H]1O5 [BNTX] | – | – | pharmacology at the MOR concluded from DMR profiling [1]: antagonist; DMR produced by ligand in HEK-MOR cells [4]: N-DMR; DAMGO-induced DMR after ligand pretreatment [2]: inhibited; ligand-induced DMR after CTOP pretreatment [2]: only slightly altered; ligand-induced DMR after DAMGO pretreatment [2]: N-DMR
